US20190040083A1 (priority 2016, published 2019)
≈ marks a conversion by molar mass, not a printed value.

System: P. aeruginosa NCTC 13437
Experiment: microbe, parasite or virus in culture
Conditions: Pseudomonas aeruginosa, NCTC13437

| SMILES | MIC [mg/L] |
| --- | --- |
| COc1ccc2ccc(=O)n(CCCN3CC[C@H]4[C@@H](C3)OC(=O)N4c3ccc4c(n3)NC(=O)CO4)c2n1 (relative stereo) [Compound 7, rel-1-{3-[(3aR*,7aS*)-2-oxo-1-{3-oxo-2H,3H,4H-pyrido[3,2-b][1,4]oxazin-6-yl}-octahydro-[1,3]oxazolo[5,4-c]pyridin-5-yl]propyl}-7-methoxy-1,2-dihydro-1,8-naphthyridin-2-one] | 1 to 10 (≈ 1.97 to 19.7 µM) |
| O=C1COc2ccc(N3C(=O)O[C@H]4CN(CCCn5c(=O)ccc6ccccc65)CC[C@H]43)nc2N1 (relative stereo) [Compound 2, rel-1-{3-[(3aR*,7aS*)-2-oxo-1-{3-oxo-2H,3H,4H-pyrido[3,2-b][1,4]oxazin-6-yl}-octahydro-[1,3]oxazolo[5,4-c]pyridin-5-yl]propyl}-1,2-dihydroquinolin-2-one] | 10 to 100 (≈ 21 to 210 µM) |
| COc1ccc2ccc(=O)n(CCCN3CC[C@@H]4[C@@H](C3)OC(=O)N4c3ccc4c(n3)NC(=O)CO4)c2n1 (relative stereo) [Compound 9, rel-1-{3-[(3aR*,7aR*)-2-oxo-1-{3-oxo-2H,3H,4H-pyrido[3,2-b][1,4]oxazin-6-yl}-octahydro-[1,3]oxazolo[5,4-c]pyridin-5-yl]propyl}-7-methoxy-1,2-dihydro-1,8-naphthyridin-2-one] | 1 to 10 (≈ 1.97 to 19.7 µM) |
| N#Cc1ccc2ccc(=O)n(CCCN3CC[C@@H]4[C@H](C3)OC(=O)N4c3ccc4c(n3)NC(=O)CO4)c2c1 (relative stereo) [Compound 6, rel-1-{3-[(3aR*,7aS*)-2-oxo-1-{3-oxo-2H,3H,4H-pyrido[3,2-b][1,4]oxazin-6-yl}-octahydro-[1,3]oxazolo[5,4-c]pyridin-5-yl]propyl}-2-oxo-1,2-dihydroquinoline-7-carbonitrile] | 10 to 100 (≈ 20 to 200 µM) |
| N#Cc1ccc2ccc(=O)n(CCCN3CC[C@@H]4[C@@H](C3)OC(=O)N4c3ccc4c(n3)NC(=O)CO4)c2c1 (relative stereo) [Compound 10, rel-1-{3-[(3aR*,7aR*)-2-oxo-1-{3-oxo-2H,3H,4H-pyrido[3,2-b][1,4]oxazin-6-yl}-octahydro-[1,3]oxazolo[5,4-c]pyridin-5-yl]propyl}-2-oxo-1,2-dihydroquinoline-7-carbonitrile] | 1 to 10 (≈ 2 to 20 µM) |
